Literature values in patent publication US6809181B2, “Human beta-defensin-3 (HBD-3), a highly cationic beta-defensin antimicrobial peptide” (University of Iowa Research Foundation, priority 2000, dated 2004).
Like-named read-outs stand apart in the source and are kept apart here.

Assays:
[1] = system: Staphylococcus epidermidis; parameters: unit not given beside the values; settings: n=50; r120; cited from earlier work
[2] = system: Staphylococcus aureus (methicillin resistant); parameters: unit not given beside the values; settings: cited from earlier work
[3] = system: Streptococcus pneumoniae; parameters: unit not given beside the values; settings: cited from earlier work
[4] = system: Staphylococcus hominis; parameters: unit not given beside the values; settings: n=20; r122; cited from earlier work
[5] = system: Staphylococcus coagulase f (non β-lactamase producer); parameters: MIC90: unit not given beside the values; settings: n=12; r116; cited from earlier work
[6] = system: Bordetella parapertussis; parameters: unit not given beside the values; settings: n=46; r9; cited from earlier work
[7] = system: Staphylococcus coagulase f (β-lactamase producer); parameters: MIC90: unit not given beside the values; settings: n=38; r118; cited from earlier work
[8] = system: Staphylococcus haemolyticus; parameters: unit not given beside the values; settings: n=20; r121; cited from earlier work
[9] = system: Campylobacter pylori; parameters: unit not given beside the values; settings: n=13; r44; cited from earlier work
[10] = system: Corynebacterium JK; parameters: unit not given beside the values; settings: n=19; r46; cited from earlier work
[11] = system: Staphylococcus coagulase f; parameters: unit not given beside the values; settings: cited from earlier work
[12] = system: Enterococcus faecium; parameters: unit not given beside the values; settings: n=14; r51; cited from earlier work
[13] = system: Enterococcus faecalis; parameters: unit not given beside the values; settings: cited from earlier work

For `CC[C@H]1OC(=O)[C@H](C)[C@@H](O[C@H]2C[C@@](C)(OC)[C@@H](O)[C@H](C)O2)[C@H](C)[C@@H](O[C@@H]2O[C@H](C)C[C@H](N(C)C)[C@H]2O)[C@](C)(O)C[C@@H](C)C(=O)[C@H](C)[C@@H](O)[C@]1(C)O` [ERYTHROMYCIN, erythromycin], the MIC90 [1] is listed as 64, the MIC90 ([2]; n=15, r108) is listed as 64 and the MIC90 ([2]; n=20, r110) is listed as 64. The MIC50 ([3]; n=26, r129) was 0.03, the MIC50 ([3]; n=50, r127) was 0.03 and the MIC50 ([3]; n=50, r130) was 0.06. The MIC50 ([3]; n=58, r125) was 0.06, the MIC90 [4] was 64 and the MIC90 [5] was 0.25. The Range [5] was 0.03-8, the MIC90 [6] was 0.25 and the MIC90 [7] was 4. For the same compound, the Range [7] was 0.06-16, the MIC90 [8] was 64 and the MIC90 [9] was 0.25. For the same compound, the MIC90 [10] was 64, the MIC90 ([11]; n=10, r114) was 2 and the MIC90 ([11]; n=100, r115) was 64. For the same compound, the MIC90 [12] was 64, the MIC90 ([13]; n=50, r48) was 64 and the MIC90 ([13]; n=86, r49) was 64.
